Legend:
CDK2/CycA2 = CDK2/CycA2 (Homo sapiens, UniProt P24941); test: CDK2 mobility shift assay (enzymatic activity of CDK2/CycA2); settings: read-out: CDK2 IC50; 1.25 nM CDK2/CycA2, 37 μM ATP, FL Peptide 18, 120 min at room temperature
CDK5/p25 = CDK5/p25 (Homo sapiens, UniProt Q00535); test: CDK5 mobility shift assay (enzymatic activity of CDK5/p25); settings: for CDK5/CDK2 specificity: fold more active against CDK5 than CDK2; for IC50: read-out: CDK5 IC50, 0.154 nM CDK5/p25, FL peptide 29, 60 min at room temperature

Sequences of proteins named here, by UniProt entry; tags and fusion partners are left off. Residues count along the entry.
UniProt Q00535, whole entry: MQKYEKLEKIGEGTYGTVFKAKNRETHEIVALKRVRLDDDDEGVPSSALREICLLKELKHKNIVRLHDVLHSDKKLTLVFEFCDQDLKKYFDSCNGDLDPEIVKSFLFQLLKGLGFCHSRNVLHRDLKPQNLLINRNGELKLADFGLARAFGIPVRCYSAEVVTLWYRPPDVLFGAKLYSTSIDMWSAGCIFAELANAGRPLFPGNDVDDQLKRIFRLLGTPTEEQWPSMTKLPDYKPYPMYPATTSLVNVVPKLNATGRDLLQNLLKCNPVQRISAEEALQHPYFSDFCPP
UniProt Q15078, 99-307 partner limits assumed: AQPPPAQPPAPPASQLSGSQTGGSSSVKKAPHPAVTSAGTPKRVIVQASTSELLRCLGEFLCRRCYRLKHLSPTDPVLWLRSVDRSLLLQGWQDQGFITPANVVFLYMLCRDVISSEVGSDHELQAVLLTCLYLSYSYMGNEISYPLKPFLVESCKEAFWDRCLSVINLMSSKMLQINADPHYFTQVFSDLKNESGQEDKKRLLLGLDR

Row | Structure (SMILES) | IC50 (CDK2/CycA2) | CDK5/CDK2 specificity (CDK5/p25) | IC50 (CDK5/p25)
1 | Cc1ccc(N2CCCC2=O)cc1Nc1cc2nc(C(C)(O)C3CCN(C)CC3)ccc2cn1 (stereo not drawn) | 100 to 1000 nM | ++ (greater than 10-fold and less than or equal to 100-fold more active against CDK5 than CDK2) | 10 to 100 nM
2 | OCc1ccnn1-c1ccc(Nc2cc3nc(NC4CCNCC4)ccc3cn2)c(F)c1 | 100 to 1000 nM | ++ (greater than 10-fold and less than or equal to 100-fold more active against CDK5 than CDK2) | 10 to 100 nM
3 | CN1CCC(S(=O)(=O)c2ccc3cnc(Nc4ccc(=O)[nH]c4)cc3n2)CC1 | 100 to 1000 nM | ++ (greater than 10-fold and less than or equal to 100-fold more active against CDK5 than CDK2) | 10 to 100 nM
4 | CN1CCC(S(=O)(=O)c2ccc3cnc(Nc4ccc(-c5cccc(F)c5)cc4F)cc3n2)CC1 | > 1000 nM | +++ (greater than 100-fold more active against CDK5 than CDK2) | < 10 nM
5 | COc1cc(-c2ccc(Nc3cc4nc(S(=O)(=O)C5CCN(C)CC5)ccc4cn3)c(F)c2)ccn1 | > 1000 nM | +++ (greater than 100-fold more active against CDK5 than CDK2) | < 10 nM
6 | N#Cc1cccc(-c2ccc(Nc3cc4nc(SC5CCNCC5)ccc4cn3)c(F)c2)c1 | 10 to 100 nM | ++ (greater than 10-fold and less than or equal to 100-fold more active against CDK5 than CDK2) | < 10 nM
7 | OCc1ccn(-c2ccc(Nc3cc4nc(NC5CC6CC5CN6)ccc4cn3)c(F)c2)n1 (single isomer, unassigned) | > 1000 nM | + (10-fold or less more active against CDK5 than CDK2) | > 1000 nM
8 | CN1CCC([C@@](C)(O)c2ccc3cnc(Nc4ccc(-n5ccccc5=O)cc4F)cc3n2)CC1 | 100 to 1000 nM | ++ (greater than 10-fold and less than or equal to 100-fold more active against CDK5 than CDK2) | < 10 nM
9 | CN1CCC(S(=O)(=O)c2ccc3cnc(Nc4ccc(-c5ccccc5C(N)=O)cc4F)cc3n2)CC1 | 100 to 1000 nM | ++ (greater than 10-fold and less than or equal to 100-fold more active against CDK5 than CDK2) | < 10 nM
10 | C[C@]1(N)CC[C@@H](S(=O)(=O)c2ccc3cnc(Nc4ccc(-n5ccc(CO)n5)cc4F)cc3n2)CC1 | 100 to 1000 nM | ++ (greater than 10-fold and less than or equal to 100-fold more active against CDK5 than CDK2) | 10 to 100 nM
11 | CN1CCC(S(=O)(=O)c2ccc3cnc(Nc4cccc(C#N)c4)cc3n2)CC1 | 100 to 1000 nM | ++ (greater than 10-fold and less than or equal to 100-fold more active against CDK5 than CDK2) | < 10 nM
12 | CC(C)N1CCC([C@@](C)(O)c2ccc3cnc(Nc4ccc(-c5cccn(C)c5=O)cc4F)cc3n2)CC1 | 100 to 1000 nM | ++ (greater than 10-fold and less than or equal to 100-fold more active against CDK5 than CDK2) | < 10 nM
13 | CN1CCC(S(=O)(=O)c2ccc3cnc(Nc4ccc(-c5ccc(C(N)=O)cc5)cc4F)cc3n2)CC1 | 100 to 1000 nM | +++ (greater than 100-fold more active against CDK5 than CDK2) | < 10 nM
14 | CN1CCC(S(=O)(=O)c2ccc3cnc(Nc4ccc(-c5ccc(C#N)cc5)cc4F)cc3n2)CC1 | > 1000 nM | +++ (greater than 100-fold more active against CDK5 than CDK2) | < 10 nM
15 | CN1CCC([C@@H](O)c2ccc3cnc(Nc4ccc(-c5cccc(C#N)c5)cc4F)cc3n2)CC1 (single isomer, unassigned) | 100 to 1000 nM | +++ (greater than 100-fold more active against CDK5 than CDK2) | < 10 nM
16 | CN1CCC([C@@](C)(O)c2ccc3cnc(Nc4cc(N5CCOCC5)ccc4F)cc3n2)CC1 | 100 to 1000 nM | +++ (greater than 100-fold more active against CDK5 than CDK2) | < 10 nM
17 | O=S(=O)(c1ccc2cnc(Nc3ccc(-n4cccn4)cc3F)cc2n1)C1CCNCC1 | 100 to 1000 nM | ++ (greater than 10-fold and less than or equal to 100-fold more active against CDK5 than CDK2) | 10 to 100 nM
18 | O=C(O)CN(c1ccc2cnc(Nc3ccc(-n4ccc(CO)n4)cc3F)cc2n1)C1CCN(CCO)CC1 | 100 to 1000 nM | ++ (greater than 10-fold and less than or equal to 100-fold more active against CDK5 than CDK2) | < 10 nM
19 | COc1cc(-c2ccc(Nc3cc4nc([C@@](O)(C5CCN(C)CC5)C(F)(F)F)ccc4cn3)c(F)c2)ccn1 | 100 to 1000 nM | ++ (greater than 10-fold and less than or equal to 100-fold more active against CDK5 than CDK2) | < 10 nM
20 | CN1CCC(S(=O)(=O)Nc2ccc3cnc(Nc4ccc(-n5ccc(CO)n5)cc4F)cc3n2)CC1 | > 1000 nM | ++ (greater than 10-fold and less than or equal to 100-fold more active against CDK5 than CDK2) | 100 to 1000 nM
21 | C[C@H]1CN(C)CC[C@@H]1S(=O)(=O)c1ccc2cnc(Nc3ccc(-n4ccc(CO)n4)cc3F)cc2n1 | 100 to 1000 nM | ++ (greater than 10-fold and less than or equal to 100-fold more active against CDK5 than CDK2) | 10 to 100 nM

Row | Structure (SMILES) | IC50 (CDK2/CycA2) | CDK5/CDK2 specificity (CDK5/p25) | IC50 (CDK5/p25)
22 | CN[C@@H](c1ccc2cnc(Nc3ccc(-n4cccn4)cc3F)cc2n1)C1CCN(C)CC1 | 100 to 1000 nM | ++ (greater than 10-fold and less than or equal to 100-fold more active against CDK5 than CDK2) | 10 to 100 nM
23 | O=S(=O)(c1ccc2cnc(Nc3ccc(-n4ccc(CO)n4)cc3F)cc2n1)C1CCN(CCO)CC1 | 100 to 1000 nM | ++ (greater than 10-fold and less than or equal to 100-fold more active against CDK5 than CDK2) | 10 to 100 nM
24 | CN1CCC(S(=O)(=O)c2ccc3cnc(Nc4ccc(-c5nnn[nH]5)cc4)cc3n2)CC1 | 100 to 1000 nM | +++ (greater than 100-fold more active against CDK5 than CDK2) | < 10 nM
25 | CN1CCC(S(=O)(=O)c2ccc3cnc(Nc4cccc(CC#N)c4)cc3n2)CC1 | 10 to 100 nM | ++ (greater than 10-fold and less than or equal to 100-fold more active against CDK5 than CDK2) | < 10 nM
26 | C[C@@H]1C[C@H](S(=O)(=O)c2ccc3cnc(Nc4ccc(-n5ccc(CO)n5)cc4F)cc3n2)CCN1 | > 1000 nM | + (10-fold or less more active against CDK5 than CDK2) | 100 to 1000 nM
27 | CC[C@H](c1ccc2cnc(Nc3ccc(-n4ccc(CO)n4)cc3F)cc2n1)C1CCN(C)CC1 | > 1000 nM | +++ (greater than 100-fold more active against CDK5 than CDK2) | 10 to 100 nM
28 | N#Cc1cccc(Nc2cc3nc(SC4CCNCC4)ccc3cn2)c1 | 10 to 100 nM | ++ (greater than 10-fold and less than or equal to 100-fold more active against CDK5 than CDK2) | < 10 nM
29 | CCC(c1ccc2cnc(Nc3ccc(-n4ccc(CO)n4)cc3F)cc2n1)C1CCNCC1 (stereo not drawn) | > 1000 nM | ++ (greater than 10-fold and less than or equal to 100-fold more active against CDK5 than CDK2) | 100 to 1000 nM
30 | CN1CCC(S(=O)(=O)c2ccc3cnc(Nc4ccc(-c5noc(=O)[nH]5)cc4)cc3n2)CC1 | 100 to 1000 nM | +++ (greater than 100-fold more active against CDK5 than CDK2) | < 10 nM
31 | CN1CCC(S(=O)(=O)c2ccc3cnc(Nc4ccc(-n5ccc(CO)n5)cc4F)cc3n2)CC1 | > 1000 nM | +++ (greater than 100-fold more active against CDK5 than CDK2) | < 10 nM
32 | N#Cc1cccc(-c2ccc(Nc3cc4nc(S(=O)(=O)C5CCN(CCO)CC5)ccc4cn3)c(F)c2)c1 | > 1000 nM | +++ (greater than 100-fold more active against CDK5 than CDK2) | < 10 nM
33 | COc1ccc(-c2ccc(Nc3cc4nc(S(=O)(=O)C5CCN(C)CC5)ccc4cn3)c(F)c2)cn1 | 100 to 1000 nM | +++ (greater than 100-fold more active against CDK5 than CDK2) | < 10 nM
34 | CN1CCC(S(=O)(=O)c2ccc3cnc(Nc4ccc(N5CCCS5(=O)=O)cc4)cc3n2)CC1 | < 10 nM | + (10-fold or less more active against CDK5 than CDK2) | < 10 nM
35 | CN1CCC(S(=O)(=O)c2ccc3cnc(Nc4cc[nH]c(=O)c4)cc3n2)CC1 | > 1000 nM | + (10-fold or less more active against CDK5 than CDK2) | > 1000 nM
36 | CN1CCC(S(=O)(=O)c2ccc3cnc(Nc4ccc(-n5ccc(C#N)n5)cc4F)cc3n2)CC1 | > 1000 nM | +++ (greater than 100-fold more active against CDK5 than CDK2) | < 10 nM
37 | CCc1ccc(F)c(Nc2cc3nc(C(C)(O)C4CCN(C)CC4)ccc3cn2)c1 (stereo not drawn) | 10 to 100 nM | ++ (greater than 10-fold and less than or equal to 100-fold more active against CDK5 than CDK2) | < 10 nM
38 | C[C@]1(N)CC[C@H](S(=O)(=O)c2ccc3cnc(Nc4ccc(-n5ccc(CO)n5)cc4F)cc3n2)CC1 (relative stereo) | 10 to 100 nM | ++ (greater than 10-fold and less than or equal to 100-fold more active against CDK5 than CDK2) | < 10 nM
39 | N[C@H]1CC[C@@H](S(=O)(=O)c2ccc3cnc(Nc4ccc(-n5cccn5)cc4F)cc3n2)CC1 | 100 to 1000 nM | ++ (greater than 10-fold and less than or equal to 100-fold more active against CDK5 than CDK2) | < 10 nM
40 | N[C@H]1CC[C@H](Sc2ccc3cnc(Nc4ccc(-n5cccn5)cc4F)cc3n2)CC1 | 10 to 100 nM | ++ (greater than 10-fold and less than or equal to 100-fold more active against CDK5 than CDK2) | < 10 nM
41 | C[C@H]1C[C@@H](S(=O)(=O)c2ccc3cnc(Nc4ccc(-n5ccc(CO)n5)cc4F)cc3n2)CCN1 | > 1000 nM | ++ (greater than 10-fold and less than or equal to 100-fold more active against CDK5 than CDK2) | 10 to 100 nM
